# TRPM1 prom inh – reduces MITF-dependent TRPM1 promoter luciferase signal. 330,000 compounds, 0.83% hits. inhibition, % at 12.5 µM. SK-MEL-5 TRPM1 promoter luciferase, 24 h. AID 488899;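 active = mean inhibition across replicates of 60% or more, whatever share of single replicates reaches that level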
# Wnt act – activators of Wnt/beta-catenin signaling; Wnt/beta-catenin reporter cell assay, activator, plate reader; activation, % at 9.35 µM; AID 743398; 300,000 compounds, 1.2% hits; in the data active = activation above about 30%, passing the limit was not always enough;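 also: 0% = neutral control wells and 100% = positive control wells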
# MITF act – increases MITF-driven TRPM1 promoter luciferase signal | SK-MEL-5 TRPM1-promoter luciferase, 24 h; % of positive control, neutral wells = 0 | activation, % at 12.5 µM | 300,000 compounds, 0.75% hits | AID 588334;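 active = mean activation of at least 80% with every replicate also reaching 80%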;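 also: 0% = neutral control wells and 100% = parthenolide positive control wells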
# miR122 inh – inhibitors of miR-122 in Huh7 cells. Huh7 miR-122 Renilla luciferase sensor, 48 h; neutral wells = 0, positive control = 100. activation (reporter increase), % at 12.5 µM. 340,000 compounds, 0.3% hits;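 active = mean replicate activation score at least 90 and every replicate individually at or above 90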;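 also: higher luciferase means less miR-122 activity so hits act as miR-122 inhibitors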
# UUG fidelity – alters start codon recognition fidelity in yeast | S. cerevisiae UUG-firefly luciferase reporter, luminescence/redox ratio | activity score, % at 18.7 µM | hit rate 0.13% among 350,000 | AID 602363;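 active means replicate mean at a twofold rise or more, about +100% in these data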;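 further: firefly luciferase made from a UUG start codon reports start codon fidelity; reporter light over untreated wells divided by growth signal over untreated wells; some hits fall short of that in this replicate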
# PGC1a acetyl inh – modulators of PGC1a acetylation | inhibition, % at 15.6 µM | 350,000 compounds, 0.17% hits | AID 651687 | U2OS PGC1a acetylation, AlphaScreen anti-acetyl-lysine; with virally co-expressed GCN5 acetyltransferase;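 active = every replicate shows inhibition of at least 40%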;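 also: 0% = neutral control wells and 100% = positive control wells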
# Active calls of the source: *; / = not tested or not shown; [ ] = dose if it differs, or a comment. A selection: hits, their analogues and other compounds. The true share with any hit is near 2.1%.
1	C[C@@H]1CCCCO[C@H](CN(C)C(=O)Nc2ccccc2)[C@H](C)CN([C@H](C)CO)C(=O)c2cc(NC(=O)CCC(F)(F)F)ccc2O1
2	COc1ccccc1NC(=O)Nc1nc2ccc(S(N)(=O)=O)cc2s1
3	COc1ccc2nc(Nc3ccc4c(c3)OCO4)sc2c1
4	COc1ccc2nc(Nc3ccccc3)sc2c1
5	COc1ccc2nc(Nc3ccccc3OC)sc2c1
6	CCNS(=O)(=O)c1ccc2nc(NC(=O)/C=C/c3cc(OC)c(OC)c(OC)c3)sc2c1

assay / compound	1	2	3	4	5	6
TRPM1 prom inh	/	-87	-78	-92	-52	4
Wnt act	/	21	-5	14	48*	50*
MITF act	/	87*	79	95*	53	2
miR122 inh	-2[16.7 µM]	6	5	16	/	/
UUG fidelity	8	-20	-21	-18	/	/
PGC1a acetyl inh	0	11	31	-2	-1	/

7	C[C@@H]1CN([C@@H](C)CO)S(=O)(=O)c2ccc(-c3cccnc3)cc2O[C@H]1CN(C)C(=O)NC1CCCC1
8	Cc1ccc(C(=O)Nc2cnc3ccccc3c2)cc1
9	O=C(Nc1nc2ccccc2[nH]1)c1cccc(F)c1
10	COc1ccc(C(=O)N[C@H](C(=O)Nc2nc3ccccc3[nH]2)C(C)C)cc1
11	Cc1cc(C(=O)Nc2cnc3ccccc3c2)ccc1[N+](=O)[O-]
12	O=C(Nc1nc2ccccc2[nH]1)c1cccc(Br)c1

assay / compound	7	8	9	10	11	12
TRPM1 prom inh	/	84*	-4	1	-1	-14
Wnt act	/	-24	31*	-1	22	24
MITF act	/	-84	2	-1	3	15
miR122 inh	-8[16.7 µM]	5	-9	117*	/	2
UUG fidelity	-12	-88	-34	-32	/	-18
PGC1a acetyl inh	-1	11	-1	-23	/	/

13	COc1ccc(C(=O)Nc2nc3ccccc3[nH]2)cc1
14	O=C(Nc1nc2ccccc2[nH]1)c1cccs1
15	C/C=C/c1cnc2c(c1)C(=O)N([C@H](C)CO)C[C@@H](C)[C@H](CN(C)C(=O)NC1CCCCC1)O2
16	C[C@@H]1CN([C@H](C)CO)C(=O)c2cccc(NC(=O)Nc3ccc(F)cc3)c2O[C@@H]1CN(C)C(=O)Nc1ccc(F)cc1
17	CO[C@@H]1CN(C)C(=O)c2cc(NC(=O)Nc3ccc(Cl)cc3)ccc2OC[C@H](C)N(C)C[C@H]1C
18	Cc1ccc(C(=O)Nc2nc3ccccc3[nH]2)cc1

assay / compound	13	14	15	16	17	18
TRPM1 prom inh	44	-59	/	/	/	73*
Wnt act	15	46*	/	/	/	-5
MITF act	-44	62	/	/	/	-72
miR122 inh	-6	-4	-7[16.7 µM]	1[16.7 µM]	/	53
UUG fidelity	-80	-15	-5	9	/	-86
PGC1a acetyl inh	17	4	2	2	4	3

19	Cc1[nH]n(-c2ccccc2)c(=O)c1N=Nc1ccc2c(c1)OCO2
20	COc1cccc(N=Nc2c(C)[nH]n(-c3ccccc3)c2=O)c1
21	COc1cccc(-c2ccc3c(c2)[C@@H]2[C@@H](CCN2C(=O)C2CCOCC2)[C@@H](CO)N3)c1
22	C[C@@H]1CN([C@H](C)CO)C(=O)c2cccc(NC(=O)C3CCCCC3)c2O[C@@H]1CN(C)S(=O)(=O)c1ccc(Cl)cc1
23	C[C@H](CO)N1C[C@H](C)[C@@H](CN(C)Cc2ccc(Oc3ccccc3)cc2)Oc2ccc(NC(=O)Cc3ccccc3)cc2CC1=O
24	COC(=O)c1ccc2c(c1)C(C)(C)C(/C=C/c1ccc(O)cc1)=[N+]2C

assay / compound	19	20	21	22	23	24
TRPM1 prom inh	-48	-15	/	/	/	106*
Wnt act	50*	-1	/	/	/	/
MITF act	49	/	/	/	/	-106
miR122 inh	-1	/	-7[16.7 µM]	-5[16.7 µM]	16[16.7 µM]	13
UUG fidelity	/	-28	-10	-8	24	/
PGC1a acetyl inh	1	/	-7	11	-23	-59

25	COC(=O)c1ccc2c(c1)C(C)(C)C(/C=C/c1ccc(OC)c(OC)c1OC)=[N+]2C
26	COc1ccc(CN2C[C@H](C)[C@@H](OC)CN(C)C(=O)c3ccc(NC(C)=O)cc3OC[C@@H]2C)cc1
27	CCCNC(=O)N1CC2(C1)CN(C(=O)CC)[C@H](CO)c1c2c2ccc(OC)cc2n1C
28	COc1ccc2c3c([nH]c2c1)[C@H](CO)N(Cc1ccccc1OC)CC31CN(S(C)(=O)=O)C1
29	N#CC(C#N)=C1SC(=Nc2ccccc2)C(=Nc2ccccc2)N1c1ccccc1
30	O=C1/C(=C\c2cccnc2)SC(=S)N1c1ccc(F)cc1

assay / compound	25	26	27	28	29	30
TRPM1 prom inh	101*	/	/	/	-2	-4
Wnt act	/	/	/	/	56*	1
MITF act	-100	/	/	/	3	5
miR122 inh	-40	/	/	/	/	/
UUG fidelity	/	/	/	/	/	-2
PGC1a acetyl inh	-45	7	8	-3	/	/

31	O=C1C(Cc2ccccc2)SC(=Nc2ccccc2)N1c1ccccc1 (stereo unspecified)
32	Fc1ccc(N2C(=S)SC(=Nc3ccccc3)C2=Nc2ccccc2)cc1
33	O=C1C(Cl)=C(N2CCCCC2)C(=O)C(Cl)=C1c1cnc(N2CCCCC2)s1
34	O=C(COc1ccc(Br)cc1)N1CCc2ccccc21
35	O=C(COc1ccccc1)N1CCc2ccccc21
36	Cc1ccc(C(=O)OCC(=O)N2CCc3ccccc32)cc1

assay / compound	31	32	33	34	35	36
TRPM1 prom inh	1	-66	101*	-88	-39	-103
Wnt act	/	58*	/	28	/	23
MITF act	4	68	-101	99*	34	108*
miR122 inh	/	/	2	/	/	-4
UUG fidelity	2	/	-9	/	/	-11
PGC1a acetyl inh	/	/	/	/	/	2

37	Cn1cccc1C(=O)OCC(=O)N1CCc2ccccc2C1
38	Cn1cccc1C(=O)OCC(=O)N1CCc2ccccc21
39	C[C@H]1CN([C@@H](C)CO)C(=O)Cc2cc(NC(=O)C3CCCCC3)ccc2O[C@H]1CN(C)C(=O)Nc1cccc2ccccc12
40	COc1cc2oc3ccccc3c2cc1N(CC(=O)N(C)C)S(=O)(=O)c1ccc(C)cc1
41	COc1ccc(Cl)cc1N(CC(=O)N(C)C)S(=O)(=O)c1ccc(C)c([N+](=O)[O-])c1
42	COc1cc2oc3ccccc3c2cc1N(CC(=O)N(C)C)S(=O)(=O)c1ccccc1

assay / compound	37	38	39	40	41	42
TRPM1 prom inh	/	-97	/	1	6	16
Wnt act	7	53*	/	/	0	-2
MITF act	/	100*	/	4	-8	/
miR122 inh	-1	0	5[16.7 µM]	-5	101*	114*
UUG fidelity	-14	-20	1	-3	15	15
PGC1a acetyl inh	-4	25	9	5	-15	-9

43	C[C@H](CO)N1C[C@H](C)[C@@H](CN(C)CC2CCCCC2)Oc2c(NC(=O)CCCCCC(=O)Nc3ccccc3N)cccc2C1=O
44	COc1cc(/C=N/NS(=O)(=O)c2ccc(C)cc2)ccc1OCc1ccc(C(=O)O)cc1
45	COCC(=O)OCc1cc2cccc(C)c2[nH]c1=O
46	C[C@H](CO)N1C[C@H](C)[C@@H](CN(C)C(=O)c2ccncc2)OCCCC[C@H](C)Oc2ccc(NC(=O)NC3CCCCC3)cc2C1=O
47	CCn1cnc2cc(NCc3ccccc3Cl)ccc21
48	CCc1ccc(CNc2ccc3c(c2)ncn3CC)cc1
49	C[C@@H]1CN([C@@H](C)CO)C(=O)c2cccc(NC(=O)Nc3ccc(C(F)(F)F)cc3)c2O[C@H]1CN(C)S(=O)(=O)c1cn(C)cn1
50	CCCc1ccc2oc(C(=O)N3CCC(COC)C3)c(C)c2c1 (stereo unspecified)

assay / compound	43	44	45	46	47	48	49	50
TRPM1 prom inh	/	72*	0	/	-81	-91	/	-99
Wnt act	/	-18	42*	/	12	29	/	11
MITF act	/	-70	3	/	87*	91*	/	103*
miR122 inh	/	/	/	3[16.7 µM]	-8	2	-2[16.7 µM]	1
UUG fidelity	/	/	/	9	-19	-20	12	-6
PGC1a acetyl inh	-14	/	2	-2	3	11	1	5

# Screens (PubChem BioAssay)
